{"sequences": {"note": "The chains behind the UniProt entries cited, without tags or fusion partners. A line that says so, or that is headed by a name, gives the form on record, which may keep a tag or linker.", "UniProt P35968, with tags, fused parts or gaps DEL940-989/E990V limits assumed": "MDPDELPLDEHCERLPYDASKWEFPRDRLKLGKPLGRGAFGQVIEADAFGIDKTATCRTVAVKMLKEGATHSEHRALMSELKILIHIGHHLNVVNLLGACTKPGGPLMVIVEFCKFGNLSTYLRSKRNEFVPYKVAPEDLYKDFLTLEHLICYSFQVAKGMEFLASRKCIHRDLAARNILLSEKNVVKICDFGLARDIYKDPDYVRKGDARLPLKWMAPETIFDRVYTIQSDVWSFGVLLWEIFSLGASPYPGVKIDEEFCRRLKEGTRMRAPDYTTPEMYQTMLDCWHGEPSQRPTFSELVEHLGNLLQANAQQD"}, "source": "patent US6534524B1", "about": "“Indazole compounds and pharmaceutical compositions for inhibiting protein kinases, and methods for their use” (Agouron Pharmaceuticals, Inc., priority 1999, dated 2003)", "key": {"[1]": {"biological_target": "phosphorylated VEGF-R2Δ50 (FLVK-P) (Homo sapiens, UniProt P35968, DEL940-989/E990V)", "assay": "VEGF-R2 coupled spectrophotometric assay, phosphorylated VEGF-R2Δ50 (FLVK-P)"}, "[2]": {"assay": "Determination of inhibitor concentration in mouse plasma after intraperitoneal and oral dosing", "format": "in vivo"}, "CDK2/Cyclin A": {"biological_target": "CDK2/Cyclin A (Homo sapiens, UniProt P24941)", "assay": "CDK2/Cyclin A assay ([32P]ATP, Rb fragment)", "format": "biochemical", "details": "Table 3"}, "[3]": {"details": "25 mg/kg, vehicle PEG400:H2O pH 2.3 30:70"}}, "note": "Where two headings read alike, the source gives them in different places."}
{"smiles": "Nc1cccc(C(=O)c2ccc3c(/C=N/n4cccc4)n[nH]c3c2)c1", "note": "[Example 44]", "values": [{"measurement": "Ki", "setting": "[1]", "value": 9.6, "unit": "nM"}]}
{"smiles": "O=C(NCc1cccc(F)c1)c1ccccc1Sc1ccc2c(/C=C/c3ccccn3)n[nH]c2c1", "note": "[Example 35(ff)]", "values": [{"measurement": "AUClast", "setting": "[2]; [3]", "value": "Blq"}, {"measurement": "Cmax", "setting": "[2]; [3]", "value": "Blq"}, {"measurement": "Cmin (7 hr conc.)", "setting": "[2]; [3]", "value": "blq"}, {"measurement": "plasma half-life (T1/2)", "setting": "[2]; [3]", "value": "blq"}]}
{"smiles": "O=C(Nc1cccc(Oc2ccc3c(/C=C/c4c[nH]cn4)n[nH]c3c2)c1)c1ccccc1", "note": "[Example 32(a), 6-[3-Benzamidophenoxy]-3-E-[2-(1H-imidazol-4-yl)ethenyl]-1H-indazole]", "values": [{"measurement": "plasma half-life (T1/2)", "setting": "[2]; [3]", "value": 2.1, "unit": "h"}]}
{"smiles": "CCn1nc(C)cc1C(=O)Nc1cc(C(=O)c2ccc3c(/C=C/c4ccccn4)n[nH]c3c2)ccc1C", "note": "[Example 41(ee), 6-[3-((1-Ethyl-3-methyl-1H-pyrazol-5-yl)carboxanido)-4-methylbenzoyl]-3-E-[2-(pyridin-2-yl)ethenyl]-1H-indazole]", "values": [{"measurement": "Cmax", "setting": "[2]; female, 50 mg/kg, vehicle PEG400:H2O pH 2.3 30:70, read-out: Cmax", "value": "> 5000", "unit": "ng/mL"}]}
{"smiles": "C(=C\\c1n[nH]c2cc(-c3ccnc4[nH]ccc34)ccc12)/c1ccccc1", "note": "[Example 52(b), 6-(7-Azaindol-4-yl)-3-E-styryl-1H-indazole]", "values": [{"measurement": "Ki", "setting": "CDK2/Cyclin A", "value": 241, "unit": "nM"}]}
